Data published in PubChem BioAssay AID492947 (National Center for Advancing Translational Sciences (NCATS), 2010).
Only a part is listed here, and it is no random draw. The source made the active and inactive calls. Calls come from the whole dose curve; as a rule, active = well fitted activation curve with a large enough effect; inconclusive = small, poorly fitted or top-dose-only effect; inactive = flat fitted curve, though single readings scatter.
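Note: 0% = DMSO controls and full agonism = EC100 isoproterenol or metaproterenol; nearly all actives have a fitted effect of over 65% in size.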

By UniProt entry, the sequences of proteins in these tests, tags left out.
UniProt P07550, whole entry: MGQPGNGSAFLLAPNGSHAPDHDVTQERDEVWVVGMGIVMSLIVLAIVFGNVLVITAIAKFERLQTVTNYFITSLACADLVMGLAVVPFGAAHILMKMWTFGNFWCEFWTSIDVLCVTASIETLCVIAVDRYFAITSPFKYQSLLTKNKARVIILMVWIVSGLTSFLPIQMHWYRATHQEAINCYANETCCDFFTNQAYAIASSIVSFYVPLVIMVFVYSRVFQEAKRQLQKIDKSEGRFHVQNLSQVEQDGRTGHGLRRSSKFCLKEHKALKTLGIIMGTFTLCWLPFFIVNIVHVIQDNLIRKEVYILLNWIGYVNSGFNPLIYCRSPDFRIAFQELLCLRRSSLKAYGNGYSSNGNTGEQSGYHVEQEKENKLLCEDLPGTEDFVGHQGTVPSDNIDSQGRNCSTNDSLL

Each molecule was assayed against Beta-2 adrenergic receptor (Homo sapiens) (UniProt P07550) (assay: qHTS assay of beta-arrestin-biased ligands of beta2-adrenergic receptor). Details: beta-arrestin recruitment to beta2AR, cell-based reporter; at 46.1 µM (top of the series).
From the text: NIH Molecular Libraries Probe Production Network [MLPCN]
NIH Chemical Genomics Center [NCGC]
PI: Bryan Roth and Bob Lefkowitz
The concept of biased agonism is an emerging concept of molecular pharmacology which proposes that seven transmembrane receptors (7TMRs) or G protein-coupled receptors (GPCRs), exist in multiple signaling conformations and complexes and that ligands (either agonists or antagonists) can induce signaling biased responses for distinct signal transduction cascades.
Furthermore, accumulating evidence over the last decade has drawn attention to a novel function of beta-arrestins as signal transducers that scaffold various signaling molecules upon activation of 7TMRs. […] This beta-arrestin-biased signaling presumably leads to distinct physiological outcomes from those by G protein activation.
Additionally, the active receptor conformations which […] on this beta-arrestin signaling are likely different from those activating G protein signaling
The goal of this screening project will be to discover and optimize novel beta-arrestin-biased ligands for beta2-AR signaling. A luminescent cell-based assay for beta2-AR-mediated agonism, known as the Tango assay, has been validated in which ligand binding of a recombinant beta2-AR and subsequent recruitment of a recombinant beta-arrestin lead to the release of the transcriptional activator tTA, which upregulates transcription of a tTA-responsive luciferase gene. […] Compounds were screened as a concentration-titration series that ranged from 46 microM to 0.6 nM.
NCGC Assay Protocol Summary:
Tango cells were dispensed into white, solid, tissue-culture-treated 1536-well plates at 1500 cells/well in DMEM, containing 1% fetal bovine serum (FBS). Then, 23 nL of compounds or DMSO were delivered to each well using a pin tool. Plates were incubated at 37 degrees C, 5% CO2 for 18 hr. Then 2.5 uL luminescent substrate mix (in-house prepared: 150 mM Tris-Cl, pH 7.6, 3 mM MgCl2, 1% Triton X-100, 5 mM DTT, 0.5 mM CoA, 0.15 mM ATP, 0.44 mM D-luciferin, final concentrations) was added to each well. Plates were then incubated for 15 minutes at room temperature, and subsequently measured on a ViewLux plate reader for luminescent signal using a clear filter with a 10 second exposure and 2x binning. The %Activity was determined from the corrected luminescence values.
Concentration-response curves were fitted to the signals arising from the resulting luminescence. The concentration-effect curves were then classified based on curve quality (r2), response magnitude and degree of measured activity, and compounds were subsequently categorized based on their curve class.
Keywords: biased agonism, beta2-AR, beta-arrestin, GPCR, 7TMR, Tango, luminescence, MLSMR, MLPCN, NIH Roadmap, qHTS, NCGC
CCN(CC)CC(O)COC(=O)C(O)(c1ccccc1)C1CCCCC1 (stereo not given) was tested, and the activation was inactive: -0.502%.
For COc1ccc(OP(C)(=O)Nc2ccc(Br)cc2)cc1 (stereo not given), the activation was inactive: -0.0449%.
With COc1ccccc1OP(C)(=O)Nc1c(C)n(C)n(-c2ccccc2)c1=O (stereo not given) the activation was inactive: 0.353%.
In the case of O=C(OCCCN1CCCC1)C(O)(c1ccccc1)C1CCCCC1 (stereo not given), the activation was inactive: -0.394%.
For CP(=O)(Oc1ccccc1)N1CCOC1=O (stereo not given), the activation was inactive: -0.582%.
CCc1ccc(OP(C)(=O)Nc2cccnc2)cc1 (stereo not given) was tested, and the activation was inactive: -0.0675%.
CC(C)(C)c1ccc(OP(C)(=O)O)cc1 was tested, and the activation was inactive: -0.306%.
COc1ccccc1OP(C)(=O)Nc1ccccc1Br (stereo not given) was tested, and the activation was inactive: -0.207%.
For CP(=O)(Nc1ccc(Cl)cc1)Oc1ccc(F)cc1 (stereo not given), the activation was inactive: -0.617%.
For CN(C)C(=O)c1c([N+](=O)[O-])cc([N+](=O)[O-])cc1[N+](=O)[O-], the activation was inactive: -0.119%.
With CCOC(=O)c1ccc(NP(C)(=O)Oc2ccc(Cl)cc2)cc1 (stereo not given) the activation was inactive: -0.474%.
With CP(=O)(OC12CC3CC(CC(C3)C1)C2)OC12CC3CC(CC(C3)C1)C2 the activation was inactive: 0.179%.
With Cc1cc(C)cc(OP(C)(=O)Nc2cccc(C(F)(F)F)c2)c1 (stereo not given) the activation was inactive: 0.843%.
In the case of COc1ccccc1OP(C)(=O)Nc1ccc(C)c(C)c1 (stereo not given), the activation was inactive: -0.701%.
In the case of COc1ccc(OP(C)(=O)Nc2ccccc2Br)cc1 (stereo not given), the activation was inactive: -0.0905%.
With Cc1nc2ccc3ccccc3c2o1.O=[N+]([O-])c1cc([N+](=O)[O-])c(O)c([N+](=O)[O-])c1 the activation was inactive: -0.0593%.
CP(=O)(OCCOc1ccccc1)OCCOc1ccccc1 was tested, and the activation was inactive: 0.118%.
CP(=O)(Nc1ccc(Cl)cc1Cl)Oc1ccccc1 (stereo not given) was tested, and the activation was inactive: -0.107%.
COc1ccccc1OP(C)(=O)Nc1ccc(Br)cc1 (stereo not given) was tested, and the activation was inactive: -0.614%.
In the case of COc1ccc(OP(C)(=O)Nc2ccccn2)cc1 (stereo not given), the activation was inactive: 0.219%.
CN(C)CCOC(=O)C(O)(c1ccccc1)C1CCCC1 (stereo not given) was tested, and the activation was inactive: -0.155%.
O=[N+]([O-])c1cc([N+](=O)[O-])c(Nc2ccccn2)c([N+](=O)[O-])c1 was tested, and the activation was inactive: -0.603%.
For Cc1c(NP(C)(=O)Oc2ccc(C(C)C)cc2)c(=O)n(-c2ccccc2)n1C (stereo not given), the activation was inactive: -0.485%.
In the case of CP(=O)(Nc1ccccn1)Oc1ccccc1 (stereo not given), the activation was inactive: -0.127%.
With COc1ccccc1OP(C)(=O)Nc1ccc(C)cc1C (stereo not given) the activation was inactive: 0.288%.
CCc1ccc(OP(C)(=O)O)cc1 was tested, and the activation was inactive: -0.153%.
CP(=O)(Nc1ccccc1F)Oc1ccccc1 (stereo not given) was tested, and the activation was inactive: -0.156%.
CC(C)c1ccc(OP(C)(=O)Nc2ccc(SC(F)(F)F)cc2)cc1 (stereo not given) was tested, and the activation was inactive: 0.448%.
In the case of O=C(OCCN1CCN(CCOCc2ccccc2)CC1)C(O)(c1ccccc1)c1ccccc1, the activation was inactive: -1.68%.
With CCOC(=O)c1ccc(NP(C)(=O)Oc2ccc(F)cc2)cc1 (stereo not given) the activation was inactive: 4.87%.
In the case of COc1ccc(OP(C)(=O)Nc2ccc(SC(F)(F)F)cc2)cc1 (stereo not given), the activation was inactive: 0.111%.
With CCN(CC)CCCOC(=O)C(O)(c1ccccc1)C1CCCCC1 (stereo not given) the activation was inactive: -0.44%.
In the case of CP(=O)(Nc1ccccc1)Oc1ccc(F)cc1 (stereo not given), the activation was inactive: 5.15%.
In the case of CCCCCOc1ccc(NP(C)(=O)Oc2ccc(Cl)cc2Cl)cc1 (stereo not given), the activation was inactive: -0.115%.
With COc1ccc(OP(C)(=O)Nc2cccc(Br)c2)cc1 (stereo not given) the activation was inactive: -0.227%.
CN(C)CCOC(=O)C(O)(c1ccccc1)C1CCCCC1 (stereo not given) was tested, and the activation was inactive: -0.211%.
With COc1ccc(NP(C)(=O)Oc2ccccc2OC)cc1 (stereo not given) the activation was inactive: 0.0486%.
For O=[N+]([O-])c1ccc(OP2(=O)COCCO2)cc1 (stereo not given), the activation was inactive: 0.453%.
Cc1cc(-c2cccc3ccccc23)c(C)cn1.O=[N+]([O-])c1cc([N+](=O)[O-])c(O)c([N+](=O)[O-])c1 was tested, and the activation was inactive: 0.462%.
With CP(=O)(Nc1ccc(SC(F)(F)F)cc1)Oc1ccc(F)cc1 (stereo not given) the activation was inactive: 0.129%.
For CCOP(C)(=S)SCC(=O)NC(C)(CC)C(=O)O (stereo not given), the activation was inactive: -0.184%.
With CP(=O)(Nc1ccc2c(c1)OCCO2)Oc1ccccc1 (stereo not given) the activation was inactive: -1.01%.
In the case of Cc1ccccc1NP(C)(=O)Nc1ccccc1C, the activation was inactive: -0.0657%.
In the case of O=[N+]([O-])c1cc([N+](=O)[O-])c(-n2nnc3ccccc32)c([N+](=O)[O-])c1, the activation was inactive: -0.006%.
In the case of Cc1nc2ccc3ccccc3c2s1.O=[N+]([O-])c1cc([N+](=O)[O-])c(O)c([N+](=O)[O-])c1, the activation was inactive: 0.127%.
For O=[N+]([O-])c1cc([N+](=O)[O-])c(Nc2nnnn2CCO)c([N+](=O)[O-])c1, the activation was inactive: -0.0997%.
For CC1=C2N=C(C=C3N=C(C(C)=C4[N-][C@@](C)([C@@H]5N=C1[C@](C)(CCC(=O)NC[C@@H](C)OP(=O)([O-])O[C@H]1[C@@H](O)[C@@H](n6cnc7cc(C)c(C)cc76)O[C@@H]1CO)[C@H]5CC(N)=O)[C@@](C)(CC(N)=O)[C@@H]4CCC(N)=O)[C@@](C)(CC(N)=O)[C@@H]3CCC(N)=O)C(C)(C)[C@@H]2CCC(N)=O.[C-]#N.[Co+3], the activation was inactive: -0.156%.
COc1ccccc1OP(C)(=O)Nc1c(C)cccc1C (stereo not given) was tested, and the activation was inactive: -0.632%.
CN1CCCCC1COC(=O)C1(O)c2ccccc2CCc2ccccc21 (stereo not given) was tested, and the activation was inactive: -3.04%.
With CP(=O)(Nc1ccc(SC(F)(F)F)cc1)Oc1ccccc1 (stereo not given) the activation was inactive: -2.12%.
With CCCOc1ccc(NP(C)(=O)Oc2ccc(Cl)cc2)cc1 (stereo not given) the activation was inactive: 0.0045%.
In the case of CC1=NCCc2c1[nH]c1ccccc21.O=[N+]([O-])c1cc([N+](=O)[O-])c(O)c([N+](=O)[O-])c1, the activation was inactive: -0.475%.
With COc1ccccc1OP(C)(=O)Nc1cccc(Br)c1 (stereo not given) the activation was inactive: 0.129%.
With CCOC(=O)c1ccc(NP(C)(=O)Oc2cc(C)cc(C)c2)cc1 (stereo not given) the activation was inactive: -0.406%.
With Cc1cc(C)cc(OP(C)(=O)Nc2ccc(C)cc2C)c1 (stereo not given) the activation was inactive: -0.0389%.
With Cc1ccc(C)c(NP(C)(=O)Oc2ccccc2)c1 (stereo not given) the activation was inactive: -0.147%.
With CP(=O)(Nc1cccc(Br)c1)Oc1ccccc1 (stereo not given) the activation was inactive: -0.0978%.
With Cc1cc(C)cc(OP(C)(=O)Nc2ccccn2)c1 (stereo not given) the activation was inactive: -0.174%.
In the case of CCN(CC)CCCOC(=O)C(O)(c1ccccc1)c1ccccc1, the activation was inactive: 0.258%.
In the case of O=[N+]([O-])c1cc([N+](=O)[O-])c(Nc2cccnc2)c([N+](=O)[O-])c1, the activation was inactive: 0.344%.
In the case of O=[N+]([O-])c1ccc2c(c1)C=Nc1ccccc1O2, the activation was inactive: 0.0216%.
With CC(C)(C)c1ccc(OP(C)(=O)Nc2ccc(SC(F)(F)F)cc2)cc1 (stereo not given) the activation was inactive: -0.901%.
Cc1cccc(C)c1OP(C)(N)=O (stereo not given) was tested, and the activation was inactive: -0.406%.
For COc1ccccc1OP(C)(=O)Nc1ccc(C)cc1 (stereo not given), the activation was inactive: -2.11%.
Cc1ccc(NP(C)(=O)Oc2ccccc2)c(C)c1 (stereo not given) was tested, and the activation was inactive: -0.11%.
CCOC(=O)c1ccc(NP(C)(=O)Oc2ccccc2)cc1 (stereo not given) was tested, and the activation was inactive: 3.47%.
With Cc1cc(C)cc(OP(C)(N)=O)c1 (stereo not given) the activation was inactive: -0.217%.
For COc1ccccc1OP(C)(=O)Nc1cc(Cl)ccc1C (stereo not given), the activation was inactive: 0.24%.
With COc1ccc(OP(C)(=O)Nc2cccc(F)c2)cc1 (stereo not given) the activation was inactive: -0.662%.
In the case of CP(=S)(Nn1cnnc1)Oc1ccccc1 (stereo not given), the activation was inactive: 0.0044%.
In the case of CP(=O)(Nc1ccccc1Br)Oc1ccccc1 (stereo not given), the activation was inactive: -0.62%.
For COc1ccccc1OP(C)(=O)Nc1ccccc1 (stereo not given), the activation was inactive: -0.0718%.
With Cc1cccc(C)c1OP(C)(=O)Nc1ccc(SC(F)(F)F)cc1 (stereo not given) the activation was inactive: -0.443%.
CP(=O)(Nc1ccc(SC(F)(F)F)cc1)Oc1ccc(Cl)cc1 (stereo not given) was tested, and the activation was inactive: -1.36%.
CP(=O)(Oc1ccccc1)OC(c1ccccc1)C(F)(F)F (stereo not given) was tested, and the activation was inactive: -0.0234%.
CCc1ccc(OP(C)(=O)N2CCN(c3ccc([N+](=O)[O-])cc3)CC2)cc1 (stereo not given) was tested, and the activation was inactive: 0.223%.
CP(=O)(NC(=O)Nc1ccccc1)Oc1ccccc1 (stereo not given) was tested, and the activation was inactive: -0.109%.
With Cc1cc(C)cc(OP(C)(=O)Nc2ccc(SC(F)(F)F)cc2)c1 (stereo not given) the activation was inactive: 0.133%.
CCOC(=O)c1ccc(NP(C)(=O)Oc2ccc(OC)cc2)cc1 (stereo not given) was tested, and the activation was inactive: -0.097%.
With CCOP(C)(=S)SCC(=O)NC(C)C(=O)O (stereo not given) the activation was inactive: -0.608%.
